Tested on: Human brain microvascular endothelial cells (HMEC)

## morpholin-4-ium 4-methoxyphenyl(morpholino) phosphinodithioate [GYY4137, reference compound]
  H2O2-induced cytotoxicity: inhibited

From patent US10058100B2, “Hydrogen sulfide releasing compounds and their use” (THE UNIVERSITY OF EXETER, priority 2011, dated 2018)
